Source: patent publication US11697852B2, “Systems and methods for determining a treatment course of action” (The Regents of the University of Michigan, priority 2013, dated 2023)

The chains behind the UniProt entries cited, without tags or fusion partners.
UniProt P03372, whole entry: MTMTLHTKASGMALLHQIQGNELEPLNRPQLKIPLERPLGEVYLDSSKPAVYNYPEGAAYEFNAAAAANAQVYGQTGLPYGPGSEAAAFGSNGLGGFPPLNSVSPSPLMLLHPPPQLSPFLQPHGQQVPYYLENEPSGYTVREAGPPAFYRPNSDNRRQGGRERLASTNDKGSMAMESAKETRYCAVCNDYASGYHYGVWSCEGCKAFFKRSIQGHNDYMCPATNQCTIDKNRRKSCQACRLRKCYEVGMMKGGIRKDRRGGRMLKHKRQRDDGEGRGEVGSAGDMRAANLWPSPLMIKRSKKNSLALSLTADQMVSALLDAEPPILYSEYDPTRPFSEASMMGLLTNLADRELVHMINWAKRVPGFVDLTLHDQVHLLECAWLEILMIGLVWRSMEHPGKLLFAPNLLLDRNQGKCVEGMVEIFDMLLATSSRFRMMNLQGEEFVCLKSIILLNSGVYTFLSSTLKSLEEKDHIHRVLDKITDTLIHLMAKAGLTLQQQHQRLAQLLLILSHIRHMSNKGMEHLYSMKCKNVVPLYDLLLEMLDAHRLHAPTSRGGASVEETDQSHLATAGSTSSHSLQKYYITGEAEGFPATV

Target: T1, wild type ESR1 (Homo sapiens, UniProt P03372)
T1 construct: expressed in transfected cells; host or cells: HEK-293T
Test: ERE-luciferase reporter assay, wild type ESR1
Format: cell-based
Conditions: HEK-293T cells co-transfected with ESR1 plasmid 50 ng and ERE-luciferase; in presence of β-estradiol (FIGS. 4, 8, 9, 10)
Text: cDNA for the wild type ESR1 was PCR amplified from a breast cell line MCF7 with the introduction of an N-terminal FLAG tag. cDNA encoding the relevant mutations of ESR1 were generated by site-directed mutagenesis (QuikChange, Agilent) and full-length constructs were fully sequenced. All the ESR1 variants were placed in the Lentivial vector pCDH (System Biosciences) for eukaryotic expression.
Once cells attached, replaced medium with DMEM containing 10% charcoal-dextran treated FBS (HyClone) and cultured overnight. The next day, cells were transiently co-transfected with ESR1-expression plasmid at 50 ng/well and luciferase reporter constructs at 25 ng per well (SABiosciences) using the FuGene 6 reagent (Promega). The ER-responsive luciferase plasmid encoding the firefly luciferase reporter gene is driven by a minimal CMV promoter and tandem repeats of the estrogen transcriptional response element (ERE). A second plasmid constitutively expressing Renilla luciferase is served as an internal control for normalizing transfection efficiencies (Cignal ERE Reporter, SABiosciences). After transfection for 18 hrs, cells were serum-starved for a few hours before treatment with 13-estradiol or anti-estrogen drugs. Cells were harvested 18 hr post-treatment, and luciferase activity was measured using the Dual-Luciferase Reporter Assay System (Promega). […]

Structure (SMILES): C[C@]12CC[C@@H]3c4ccc(O)cc4C[C@@H](CCCCCCCCC[S+]([O-])CCCC(F)(F)C(F)(F)F)[C@H]3[C@@H]1CC[C@@H]2O (stereo partly shown) [fulvestrant, Fulvestrant]
- inhibition of wild-type ER reporter (transactivation) activity: inhibited in a dose-dependent fashion
